Key:
normal T-cells = experiment: Cytotoxicity, cell viability assay in normal cells; type: cell-based, human; conditions: fraction of 0 μM control
Description: Human peripheral blood mononuclear cells (PBMCs), normal T-cells and B-cells were provided by the University of Pennsylvania Human Immunology Core (HIC), and Patient-derived xenografts (PDXs) were obtained from Fox Chase Cancer Center (FCCC). These samples were from different unidentified and healthy donors with written, informed consent. All the procedures were approved by the Institutional Review Board (IRB) and conducted according to the declarations of Helsinki protocols.
(§1) 5000 cells as indicated were cultured in 96-well plate with 100 μl of media. On the next day, Brusatol or associated analogs were added once to the cells without media change. After treatment, the cells were incubated with 100 μl buffer for 10 min at room temperature following the instructions of CellTiter-Glo kit (Promega, Madison, WI). Luminescence was detected using a multi-mode reader Cytation 5 (BioTek, Winooski, VT). Brusatol or its analogs are dissolved in 100% ethanol and diluted in 1 × PBS for treatment. Two independent experiments done in duplicates were performed.

SU-DHL-4 cells = experiment: Cell viability assay (CellTiter-Glo luminescence); type: cell-based; conditions: human
Protocol: as §1

MOLM14 cells = experiment: Cell viability assay (CellTiter-Glo luminescence); type: cell-based; conditions: human
Protocol: as §1

Raji cells = experiment: Cell viability assay (CellTiter-Glo luminescence); type: cell-based; conditions: human
Protocol: as §1

C[C@H](Nc1ncnc2[nH]cnc12)c1cc2cccc(Cl)c2c(=O)n1-c1ccccc1 [Duvelisib]
relative cell viability (Fig 6b), replicates (normal T-cells; Con. 0.00390625 μM): 1.005 | relative cell viability (Fig 6b), replicates (normal T-cells; Con. 0.25 μM): 0.9949 | relative cell viability (Fig 6d), replicates (SU-DHL-4 cells; 0.625 μM): 0.6063 | relative cell viability (Fig 6d), replicates (SU-DHL-4 cells; 10 μM): 0.2289 | relative cell viability (Fig 6e), replicates (MOLM14 cells; 0.00976562 μM): 1.129 | relative cell viability (Fig 6e), replicates (MOLM14 cells; 0.0390625 μM): 1.0712 | relative cell viability (Fig 6e), replicates (MOLM14 cells; 0.625 μM): 1.2778 | relative cell viability (Fig 6e), replicates (MOLM14 cells; 2.5 μM): 1.048 | relative cell viability (Fig 6f), replicates (Raji cells; 0.00244141 μM): 0.9023 | relative cell viability (Fig 6f), replicates (Raji cells; 0.0390625 μM): 1.115 | relative cell viability (Fig 6f), replicates (Raji cells; 0.15625 μM): 0.8918 | relative cell viability (Fig 6f), replicates (Raji cells; 0.625 μM): 1.0906
